Like-named read-outs stand apart in the source and are kept apart here.
B1: 3-3 (conjugate)
heavy: EVQLVQSGAEVKKPGASVKVSCKASGYSFTDYYMHWVRQAPGQGLEWIGRINPYAGAAFYSQNFKDRVTLTVDTSTSTAYLELSSLRSEDTAVYYCAIERGADLEGYAMDYWGQGTLVTVSSASTKGPSVFPLAPSSKSTSGGTAALGCLVKDYFPEPVTVSWNSGALTSGVHTFPAVLQSSGLYSLSSVVTVPSSSLGTQTYICNVNHKPSNTKVDKKV[human IgG1 Fc not printed]
light: DIQMTQSPSSLSASVGDRVTITCRASQSVSTSSYNYMHWYQQKPGKPPKLLIKYASNLESGVPSRFSGSGSGTDFTLTISSLQPEDFATYYCQHSWEIPLTFGQGTKVEIKRTVAAPSVFIFPPSDEQLKSGTASVVCLLNNFYPREAKVQWKVDNALQSGNSQESVTEQDSKDSTYSLSSTLTLSKADYEKHKVYACEVTHQGLSSPVTKSFNRGEC
B2: 3-5 (conjugate)
heavy: B1 heavy
light: B1 light
B3: 3-6 (conjugate)
heavy: B1 heavy
light: B1 light
B4: 3-7 (conjugate)
heavy: B1 heavy
light: B1 light
B5: 3-2 (conjugate)
heavy: B1 heavy
light: B1 light
B6: 3-A (conjugate)
heavy: B1 heavy
light: B1 light
B7: 3-1 (conjugate)
heavy: B1 heavy
light: B1 light

Legend:
[1] = for ADC AUClast / Tab AUClast: BALB/c nude mice, intravenous; for payload exposure compared with ADC3-A: mouse PK, in words
Method: Female BALB/c nude mice (n==3 per group) were treated with freshly prepared ADCs (5 or 10 mg/kg) through intravenous administration. At the designated time points after dosing, mice were anesthetized by isoflurane. […] Blood samples were placed at room temperature for about 30 minutes and processed by centrifugation (4° C., 3000×g, 7 min) to separate plasma. Serum samples were transferred into new 1.5 mL tubes and kept in a −80° C. freezer prior to analysis.
Serum payload concentrations. To determine serum payload concentrations, an aliquot of 15 μL sample was added with 150 μL IS (Verapamil, 10 ng/mL) in ACN/MeOH (1:1). The mixture was vortexed for 1 min and centrifuged at 4000 rpm for 10 min at 4° C. An aliquot of 80 μL supernatant was diluted with 80 μL, water, and the mixed sample was injected into LC-MS/MS.
LC-MS/MS method to determine payload bioanalysis. LC-MS/MS analysis was carried out under the following measurement conditions: • Instrument: LC-MS/MS (Triple Quad 6500 plus) • Monitor: MRM • Column: Advanced Materials Technology, HALO AQ-C18 2.7 μm 90 Å, 50*2.1 mm • Column temperature: 40° C. • canile phase A: H2O-0.1% FA • Mobile phase B: ACN-0.1% FA • Gradient program for MMAE: 15% B-15% B (0 min-0.4 min), 15% B-30% B (0.4 min-0.8 min), 30% B-30% B (0.8 min-1.8 min), 30% B-90% B (1.8 min-1.9 min), 90% B-90% B (1.9 min-2.4 min), 90% B-15% B (2.4 min-2.5 min), 15% B-15% B (2.5 min-3.0 min) • Injected sample amount: 10 μL (MMAE)
Plasma ADC and total Ab (Tab) concentrations. Plasma ADC and Tab concentrations were determined using an ELISA assay in which the capture reagent was CLL1 or PTK7 (as applicable) ECD (extracellular domain). The detection reagent was anti-payload Ab for ADC concentration and anti-human IgG polyclonal Ab for Tab concentration.
For ADC concentration, microplates were coated with CLL1 or PTK7, as applicable, ECD at 1 μg/mL, 100 μL per well and incubated overnight at 4° C. The microplates were washed 3 times with 0.05% PBST, then 200 μL 2% BSA solution was added per well. The plates were incubated at 37° C. for 1 h followed by washing 3 times with 0.05% PBST. Then 100 μL (of ADC samples or for standard curves) were added to each well. Plates were incubated at 37° C. for 1 h followed by washing 3 times with 0.05% PBST. 100 μL of 1 μg/ml biotin anti-MMAE antibody was added per well. Plates were again incubated at 37° C. for 1 h and then washed 3 times with 0.05% PBST. Then 100 μl of 1:10000 SA-HRP was added per well, incubated at 37° C. for 0.5h, followed by washing 3 times with 0.05% PBST. Lastly, 100 μL TMB was added per well and plates were incubated for 15 mins at room temperature before the addition of 100 μL stop solution per well. Plates were read at OD 450 on an ELISA microplate reader.
For Tab concentration of anti-CLL1 antibodies, the foregoing ADC method was used except for the following changes: 100 μL of anti human lgG Fc HRP (1:10000) was added per well.

[2] = for DAR changes compared with ADC3-A: mouse PK samples, in words; for DAR: mouse
Method: ADC DAR changes in mouse serum PK samples.
Human CLL1 or PTK7, as applicable, ECD was biotinylated and immobilized onto Dynabeads M-280 Streptavidin. ADCs were captured from the plasma samples by incubation with an ECD-bead system for 2 hours at 37° C. The captured ADCs were then washed with HBS-EP buffer (10 mM Hepes [pH 7.4], 150 mM NaCl, 3.4 mM ethylenediaminetetraacetic acid [EDTA], 0.005% Surfactant P20) and digested using IdeS enzyme at 37° C. for 1 h. After extensive washing of the beads with HBS-EP, water, and 10% acetonitrile, the ADC analytes were eluted using 30% acetonitrile with 1% formic acid. The samples were then reduced with 100 mM TCEP for 45 min. Liquid chromatography-tandem mass spectrometry (LC-MS/MS) methods were used for the ADC DAR analysis.

[3] = ADC hydrophobicity evaluation by HIC chromatography (DAR8 peak retention time); format: physicochemical; conditions: HIC retention time of DAR8 peak; later RT = more hydrophobic
Method: HIC method: HPLC analysis was carried out under the following measurement conditions: • HPLC system: Waters ACQUITY ARC HPLC System • Detector: measurement wavelength: 280 nm • Column: Tosoh Bioscience 4.6 μm ID×3.5 cm, 2.5 μm butyl-nonporous resin column • Column temperature: 25° C. • Mobile phase A: 1.5 M ammonium sulfate, 50 mM phosphate buffer, pH 7.0 • Mobile phase B: 50 mM phosphate buffer, 25% (V/V) Isopropanol, pH 7.0 • Gradient program: 0% B-0% B (0 min-2 min), 0% B-100% B (2 min-15 min), 100% B-100% B (15 min-16 min), 100% B-0% B (16 min-17 min), 0% B-0% B (17 min-20 min) • Injected sample amount: 20 g
ADC hydrophobicity evaluation: An ADC with a higher hydrophobic property would appear with a later retention time (“RT”) from HIC (hydrophobicity interaction column) chromatography. Results are presented in Tables 2A-2D using the DAR8 peak as a reference.

Molecule | ADC AUClast ([1]; 5 mg/kg) [µg·h/mL] | Tab AUClast ([1]; 5 mg/kg) [µg·h/mL] | payload exposure compared with ADC3-A [1] | DAR changes compared with ADC3-A [2] | DAR ([2]; 5 mg/kg, 2 h post-dosing) | DAR ([2]; 5 mg/kg, […] post-dosing) | DAR8 RT [3] [min] | ADC AUClast ([1]; 10 mg/kg) [µg·h/mL] | Tab AUClast ([1]; 10 mg/kg) [µg·h/mL] | DAR ([2]; 10 mg/kg, 2 h post-dosing) | DAR ([2]; 10 mg/kg, […] post-dosing) | DAR ([2]; 5 mg/kg, 0.5 h post-dosing) | DAR ([2]; 5 mg/kg, 72 h post-dosing)
B1 | 4229 | 4923 | lower payload exposure | lower DAR changes | 3.48 | 2.82 |  |  |  |  |  |  | 
B2 | 8380 | 8051 | lower payload exposure | lower DAR changes | 2.94 | 2.34 |  |  |  |  |  |  | 
B3 | 6969 | 7965 | lower payload exposure | lower DAR changes | 2.96 | 2.24 | 12.466 |  |  |  |  |  | 
B4 |  |  | lower payload exposure | lower DAR changes |  |  | 11.961 | 13175 | 12900 | 3.60 | 3.36 |  | 
B5 |  |  |  |  |  |  | 14.167 |  |  |  |  |  | 
B6 | 4353 | 6448 |  |  |  | 1.22 | 14.466 |  |  |  |  | 2.76 | 1.96
B7 |  |  |  |  |  |  | 14.491 |  |  |  |  |  | 

Source: patent US20260256936A1, “BIOACTIVE CONJUGATES, PREPARATION METHOD AND USE THEREOF” (priority 2023, published 2026)
